Publication PMC9073595, “Synthesis, human topoisomerase IIα inhibitory properties and molecular modeling studies of anti-proliferative curcumin mimics” (RSC Advances, 2019)

Test system: A431 (squamous skin) carcinoma cell line
Experiment: MTT anti-proliferative assay, A431
Type: cell-based
Settings: Homo sapiens, A-431, 72 h incubation, 50% inhibition of cell growth, read-out: IC50, μM ± SD, A431

SMILES: O=c1[nH]cc(F)c(=O)[nH]1 [Compound 5-FU, 5-fluorouracil, reference compound]
- IC50: 23.4 ± 2.09 µM
